The term inhibition denotes the percentage by which the read-out fell short of the control.

The chains behind the UniProt entries cited, without tags or fusion partners.
UniProt Q9Y570, whole entry: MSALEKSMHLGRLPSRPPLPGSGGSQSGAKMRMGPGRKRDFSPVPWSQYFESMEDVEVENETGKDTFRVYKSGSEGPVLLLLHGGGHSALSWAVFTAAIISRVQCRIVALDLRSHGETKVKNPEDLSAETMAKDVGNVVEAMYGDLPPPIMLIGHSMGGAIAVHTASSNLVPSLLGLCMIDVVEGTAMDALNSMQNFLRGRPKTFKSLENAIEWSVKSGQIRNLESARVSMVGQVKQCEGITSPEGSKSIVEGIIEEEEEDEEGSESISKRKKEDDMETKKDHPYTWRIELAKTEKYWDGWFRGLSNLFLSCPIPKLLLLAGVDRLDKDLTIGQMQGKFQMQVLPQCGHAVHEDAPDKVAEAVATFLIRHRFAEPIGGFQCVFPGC

This is a selection; strong and weak results do not stand in their true shares. Activity calls are given as the source filed them.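 Rule for the calls: active = inhibition above the campaign mean of all compounds plus 3 SD (cut at about 26% in these data); inactive = the rest.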

The assay deals with Protein phosphatase methylesterase 1 (Homo sapiens) (UniProt Q9Y570). The assay is described as follows: PME-1 inhibitors via competitive probe labeling, primary screen, biochemical, fluorescence polarization, FP-Rh probe, HTS (AID 2130).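 Note: competitive labeling of PME-1 active site by serine hydrolase directed probe; 0% = PME-1 with DMSO and 100% = wells lacking PME-1 enzyme; inhibitors block probe labeling so polarization falls and inhibition rises.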 The settings on record: recombinant PME-1, FP-Rh probe fluorescence polarization; at 5.9 µM; stronger effect = higher value. On the technique in general: In fluorescence polarisation assays a small probe gives low polarisation when free and higher when bound to something large.
For the compound `O=C(NC1CCS(=O)(=O)C1)NP(=S)(Oc1ccccc1)Oc1ccccc1` (stereo unspecified), the inhibition was inactive: 3.24%.
